How the values were obtained:
[1] = Normal-phase TLC on silica gel 60 F254 (Rf); format: physicochemical; details: water:methanol:acetonitrile 60:20:20, ammonium acetate pH 7.4
[2] = Reversed-phase TLC on RP-2 silanized plates (Rf); format: physicochemical; details: silica gel 60 RP-2 F254 silanized; water:methanol:acetonitrile 60:20:20, ammonium acetate pH 7.4

Row | Compound | NP (Rf from NP TLC plate) [1] | RP (Rf from RP-2 TLC plate) [2]
1 | CN1[C@@H]2CC[C@H]1C[C@@H](OC(=O)C(CO)c1ccccc1)C2 (some centres unmarked) [atropine] | 0.27 | 0.73
2 | CCCCC(=O)N(Cc1ccc(-c2ccccc2-c2nnn[nH]2)cc1)[C@H](C(=O)O)C(C)C [valsartan] | 0.89 | 0.97
3 | PABA | 0.89 | 

Reference: paper PMC10384010, “Chromatographic Data in Statistical Analysis of BBB Permeability Indices” (Membranes, 2023)
